## Antibody variant affinities, Ab-14 light chain, assay B

From the AlphaSeq antibody data of Li et al. 2023 (doi:10.1038/s41467-023-39022-2), copy in the FLAb collection.

All variants were tested on one target, the spike HR2 peptide PDVDLGDISGINAS (SARS-CoV-2).

Parent scFv Ab-14: VH joined to VL by a 15-residue (Gly4Ser)3 linker. Changes lie in the light chain CDRs alone.
VH: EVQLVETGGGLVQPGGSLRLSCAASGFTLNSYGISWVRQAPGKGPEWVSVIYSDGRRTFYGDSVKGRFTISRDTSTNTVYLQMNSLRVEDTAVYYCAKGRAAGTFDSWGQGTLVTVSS
VL: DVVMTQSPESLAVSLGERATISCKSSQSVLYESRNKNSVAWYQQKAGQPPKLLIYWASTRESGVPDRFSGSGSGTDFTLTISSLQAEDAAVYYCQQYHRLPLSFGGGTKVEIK

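Phage display of a naive human antibody library on the peptide gave the parent. This is the validation round: designs drawn from the data on random variants, tested in the same kind of assay. Group labels follow the data file (Ctrl: baseline library sampled from a position-specific scoring matrix, with some repeated check sequences; Rand: our label for a block that the file lists under HC and that is probably the random mutants of the ten best first-round binders; En: ensemble of fine-tuned language models; GP: Gaussian process model; HC: hill climbing; Gen: genetic algorithm; Gibbs: Gibbs sampling; a sequence that several methods proposed may carry one label only). In AlphaSeq, yeast of one mating type display the scFv and yeast of the other type display the target. Mating (16 h, 30 °C) was followed by selection of diploids and sequencing of their barcodes. Read counts were normalised to the haploid input and turned into Kd by a linear fit to BCL2-family pairs of known affinity, for each replicate. There are six technical replicates.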

Each variant is given by its three light chain CDRs, as the data file delimits them; those of the parent are KSSQSVLYESRNKNSVA, WASTRES, QQYHRLPLS.
Kd is apparent (estimated from mating counts) and averaged on the log scale over replicates with a signal. Smaller is tighter.
A pair that was not seen in any replicate is written "no signal"; this usually means weak binding, but a binder can also be missed.
Order: sorted from the lowest average up, undetected variants last.

CDR-L1 | CDR-L2 | CDR-L3 | group | Kd | detected
ALGDVTRMESNKKNSIA | DMSNREN | QQYHRLPLS | En_HC | 430 pM | 6 of 6
KLSGSVLYESRNKNSVA | NASTRMS | QQYHRLPLS | GP_Gen | 460 pM | 6 of 6
KLRQSQLYESRNPNSVA | NASTRES | QQYHRLPLS | GP_HC | 470 pM | 6 of 6
KLSQSVLMESRNKNSVA | DASLRES | QQYHRLPLS | GP_HC | 480 pM | 6 of 6
HLSDSVLYESRNKNSVA | NASTRES | QQYHRLPLL | GP_HC | 600 pM | 6 of 6
KCSSSVLFQSRNKNSVA | DASTRES | QQYHRLPLS | GP_HC | 620 pM | 6 of 6
KLYQSWLYESRNKNSVA | NASQRES | QQYHRLPLS | GP_Gen | 630 pM | 6 of 6
KSSTSVLYENRNKNSVA | NASTREE | QQYHRLPLS | Ctrl | 630 pM | 6 of 6
KLSQSVLYESRNWNSVA | EASTRES | QQYHRLPLS | GP_Gen | 690 pM | 6 of 6
KLSQSVLYESRNHNSVA | AASTRES | QQYHRLPLS | Ctrl | 720 pM | 6 of 6
KMSQSVLMESRNANSVA | DASTRES | QQYHRLPLS | GP_HC | 750 pM | 6 of 6
KLQQSALYESRNKNSVA | NASQRES | QQYHRLPLS | GP_Gen | 990 pM | 6 of 6
KSSISYLYESNNKNSVA | AASTRES | QQYHRLPLS | GP_HC | 1.0 nM | 6 of 6
KVSQSVLFESRMKNSVA | DASTRCS | QQYHRLPLS | GP_HC | 1.0 nM | 6 of 6
SLEAFEYQIMKDLNNIA | NTQTRVN | QQYMRLPFM | En_Gibbs | 1.1 nM | 6 of 6
HMSMITLMGSKNRNSVA | QMTTREN | QQYDRLPLS | En_Gen | 1.2 nM | 5 of 6
VLQQLGLYESRNKNSVA | SASTRLP | QQYHRLPLS | GP_Gibbs | 1.2 nM | 6 of 6
KVSQSHLYESRNKNSVA | DASTRLS | QQYHRLPLS | GP_Gen | 1.2 nM | 6 of 6
KSFFSEPGESRNKNSVA | DASTRES | QQYHRLPLS | GP_Gibbs | 1.3 nM | 6 of 6
KSSESGLYESRNKNSVA | EASTRES | QQYHRLPLS | GP_HC | 1.3 nM | 6 of 6
KVSTSQEYEDRNKNSVA | HASTREQ | QQYHRLPLS | GP_Gibbs | 1.4 nM | 6 of 6
KLSWSNLYESRNANSVA | NASQRCS | QQYHRLPLS | GP_Gibbs | 1.7 nM | 6 of 6
KIQQSVLYEDRVKNSVA | NASDRMS | QQYHRLPLS | GP_Gibbs | 2.5 nM | 6 of 6
HMSMLTLGGMKARNSVA | QMTTREN | QQYDRLPLA | En_Gen | 3.0 nM | 6 of 6
KISQMANFESTHINAVA | QMSTREE | QQYFRLPLS | En_HC | 3.2 nM | 6 of 6
KQSISVLQESRNKNSVA | DASTRES | QQYHRLPLS | GP_HC | 4.2 nM | 6 of 6
KDSQSVLYSSRNKNSVA | AASTRES | QQYHRLPLS | Ctrl | 4.4 nM | 6 of 6
KLYMMTGIESHAKNSLA | DANRRED | QQYHRLPLS | En_HC | 4.5 nM | 6 of 6
KLRQSTHIESFNKNNVA | EMTTREV | QSYDRLPLS | En_HC | 5.1 nM | 6 of 6
HISMMVGTKGGARNSVA | NEETRYD | QQYHRLPLS | En_HC | 5.3 nM | 6 of 6
KLSQSVLYESRNKNSVA | WASTRES | QQYHRLPLS | Ctrl+GP_Gen | 5.4 nM | 10 of 12
KLSGSMLYEQRMKNSVA | QASHRMS | QQYHRLPLS | GP_Gibbs | 5.7 nM | 6 of 6
NLGFVDDNDNQMMMSIA | DANTVGE | QQYNRLPLA | En_Gibbs | 6.2 nM | 6 of 6
MLDEYQSYGAANLNAVA | DANCTMF | QAYYRLPLS | En_Gibbs | 8.9 nM | 6 of 6
KLEQSVEMESRWKNSVA | HASTRES | QQYHRLPLS | GP_Gibbs | 9.5 nM | 6 of 6
KFSQSVLYESRTFNSVA | NASTEES | QQYHRLPLS | Rand | 9.6 nM | 6 of 6
SLELFSLEGDKPVNAVA | DEVVKTS | QQYFRLPLH | En_Gibbs | 10 nM | 6 of 6
KSSQSVSEESSNKNSVA | WASSRES | QQYHRLPLS | Ctrl | 10 nM | 2 of 6
KLRQSTHIESFNKNNVA | EMTTRES | QSYDRLPLS | En_HC | 12 nM | 6 of 6
VSSQSVLYESRNKNSVA | WGTTRES | QQYHRLPLS | Ctrl | 20 nM | 6 of 6
KVSEFMRGLMKMKDSIA | DNETRGA | QQYDRLPLS | En_Gen | 25 nM | 1 of 6
NLSDGEMYENATRSNIA | NTSMRDF | QQYNRLPLD | En_Gibbs | 27 nM | 6 of 6
NLSDGEMYENATRSNIA | DTSMRDF | QQYNRLPLD | En_Gibbs | 27 nM | 6 of 6
MFSDEKYAYENQANSIA | EKTELVF | QDYHRLPFA | En_Gibbs | 54 nM | 6 of 6
KLYMMTGYESRNADSIA | DNSTRGR | QQYHRLPLS | En_HC | 58 nM | 5 of 6
KISMLHNQTFEVSNNVA | EMVTREK | QQYNRLPLS | En_Gen | 87 nM | 6 of 6
QLGDEQVGETLMADNIA | HDAFRAD | QQYFRLPLL | En_Gibbs | 100 nM | 6 of 6
IISELYNQAMGMRNNVA | NNATRED | QQYDRLPLS | En_Gen | 200 nM | 4 of 6
ASSQSVLYESRNTNSVA | HASTRES | QQYHRLPLS | Ctrl | 240 nM | 4 of 6
KLREVQHVESKQKNSVA | DNSTRES | QDYYRLPLS | En_HC | 460 nM | 6 of 6
KSSQSVSYESRNKNSVA | KDSTRES | QQYHRLPLS | Ctrl | 730 nM | 4 of 6
KSVQSDLYESRNKNSVA | WAHTRES | QQYHRAPLS | Ctrl | no signal | 0 of 6
KLSQPILYESRNKNSVA | WASTRES | QQYHRLPLS | Ctrl | no signal | 0 of 6
KRSSSSLYESKDKNSVA | WDSTRES | QQHHRLPLS | Ctrl | no signal | 0 of 6
VMFMGLYWNNDETYAIA | DVTMREK | QQYHRLPLM | En_Gibbs | no signal | 0 of 6

For reference, 3 entries of the list once more:

| CDR-L1 | CDR-L2 | CDR-L3 | group | Kd | detected |
|---|---|---|---|---|---|
| KLRQSTHIESFNKNNVA | EMTTREV | QSYDRLPLS | En_HC | 5.1 nM | 6 of 6 |
| KISQMANFESTHINAVA | QMSTREE | QQYFRLPLS | En_HC | 3.2 nM | 6 of 6 |
| KLRQSTHIESFNKNNVA | EMTTRES | QSYDRLPLS | En_HC | 12 nM | 6 of 6 |

Empty control strains, which show no peptide, gave a signal in 4% of pairings with all light chain designs; the median was 430 nM and 95% of these signals were weaker than 38 nM. No background was subtracted.
A sequence that the file lists under several names has all its replicates pooled.
Values of this round are not directly comparable with the first-round values of the same sequences.
Of ten entries with the parent sequence, four were seen in most replicates (averages 2.2 nM to 240 nM), three in one and three in none, so single entries are noisy.
The authors' rule: three or more of the six replicates give a measured affinity, fewer mean a poor binder.